In experiment [1] the test system is NQO1 in Hepa1c1c7 murine hepatoma cells. Nature of the experiment: NQO1 induction. The class given is cell-based.
Experiment [2] deals with monocrotaline (MCT)-induced pulmonary arterial hypertension. The experiment is described as follows: Rat model of monocrotaline (MCT)-induced pulmonary arterial hypertension. It is filed as in vivo.
For experiment [3], the system named is diabetes-associated atherosclerosis. Particulars: cited from earlier work.
In another experiment the test system is ETA and ETB receptors. The experiment is described as follows: Rat 5/6 nephrectomy model of chronic renal failure, endothelin receptor expression in kidney. The following applies: 5/6 nephrectomy rats, 2 mg/kg once daily 12 weeks.

The source of these data is patent publication US20150080465A1 (priority 2013, published 2015).

For `CC1(C)CC[C@]2(C#N)CC[C@]3(C)[C@H](C(=O)C=C4[C@@]5(C)C=C(C#N)C(=O)C(C)(C)[C@@H]5CC[C@]43C)[C@@H]2C1`, the “NQO1 CD (concentration required to induce a two-fold increase in the expression of NQO1)” value in experiment [1] amounted to 0.28 nM.
Consider `CC1(C)CC[C@]2(C(=O)NCC(F)(F)F)CC[C@]3(C)[C@H](C(=O)C[C@@H]4[C@@]5(C)C=C(C#N)C(=O)C(C)(C)[C@@H]5CC[C@]43C)[C@@H]2C1`, for which, in experiment [2] (10 mg/kg, 21 days), the “Lung histology effect compared with positive control” value is reported as “as effective as the positive control sildenafil”. In addition, the Pulmonary edema entry in experiment [2] (10 mg/kg/day, 21 days) is given as “completely abrogated”. For the same molecule, in experiment [2] (2, 10 or 30 mg/kg/day), the “Expression of pro-inflammatory NF-κB target genes in rat lung” value is listed as “decrease in expression”; the “mRNA expression of antioxidative Nrf2 target genes in rat lung” value is “dose-dependent and significant induction”. The “MCT-induced microscopic changes in the lung (arteriolar hypertrophy, pulmonary edema, cell and fibrin infiltrates)” value in experiment [2] (2, 10 or 30 mg/kg/day, 21 days, all dose levels) is listed as “inhibited microscopic changes”. Besides, the “Lesion deposition within the aortic sinus” value in experiment [3] (in vivo) is recorded as “attenuate lesion deposition”. For the same molecule, the “Plaque in the arch, thoracic, and abdominal regions of the aorta” value in experiment [3] (inverse dose-dependent manner) is reported as “reduce plaque”. Further, in the experiment on ETA and ETB receptors, the “Induction of the ETA receptor in kidney” value was “completely suppressed” and the “Reduced expression of the ETB receptor in kidney” value is “partially reversed”.
